# From PubChem BioAssay (NCI)
# Some results for these compounds are left out of this collection, so the calls shown say nothing about other tests.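 48-hour exposure; five concentrations; linearly interpolated endpoints. Definition used: TGI = concentration required for complete inhibition of growth.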
# Experiments:
# Assay in all cases: NCI anticancer screen, dose series, 48 h
# 786-0 renal = system: 786-0 renal
# A549 NSCLC = system: A549 NSCLC
# ACHN renal = system: ACHN renal
# BT-549 breast = system: BT-549 breast
# CAKI-1 renal = system: CAKI-1 renal
# CCRF-CEM leukemia = system: CCRF-CEM leukemia
# COLO 205 colon = system: COLO 205 colon
# DU-145 prostate = system: DU-145 prostate
# EKVX NSCLC = system: EKVX NSCLC
# HCC-2998 colon = system: HCC-2998 colon
# HCT-116 colon = system: HCT-116 colon
# HCT-15 colon = system: HCT-15 colon
# HL-60(TB) leukemia = system: HL-60(TB) leukemia
# HOP-62 NSCLC = system: HOP-62 NSCLC
# HT29 colon = system: HT29 colon
# IGROV1 ovarian = system: IGROV1 ovarian
# K-562 leukemia = system: K-562 leukemia
# KM12 colon = system: KM12 colon
# LOX IMVI melanoma = system: LOX IMVI melanoma
# M14 melanoma = system: M14 melanoma
# MALME-3M melanoma = system: MALME-3M melanoma
# MCF7 breast = system: MCF7 breast
# MDA-MB-231 breast = system: MDA-MB-231 breast
# MDA-MB-435 = system: MDA-MB-435
# MDA-N = system: MDA-N
# MOLT-4 leukemia = system: MOLT-4 leukemia
# NCI-H226 lung = system: NCI-H226 lung
# NCI-H23 lung = system: NCI-H23 lung
# NCI-H522 lung = system: NCI-H522 lung
# NCI/ADR-RES ovarian = system: NCI/ADR-RES ovarian
# OVCAR-3 ovarian = system: OVCAR-3 ovarian
# OVCAR-5 ovarian = system: OVCAR-5 ovarian
# OVCAR-8 ovarian = system: OVCAR-8 ovarian
# PC-3 prostate = system: PC-3 prostate
# RPMI-8226 leukemia = system: RPMI-8226 leukemia
# RXF 393 renal = system: RXF 393 renal
# SF-268 CNS = system: SF-268 CNS
# SF-295 CNS = system: SF-295 CNS
# SF-539 CNS = system: SF-539 CNS
# SK-MEL-28 melanoma = system: SK-MEL-28 melanoma
# SK-MEL-5 melanoma = system: SK-MEL-5 melanoma
# SK-OV-3 ovarian = system: SK-OV-3 ovarian
# SN12C renal = system: SN12C renal
# SNB-19 CNS = system: SNB-19 CNS
# SNB-75 CNS = system: SNB-75 CNS
# SR leukemia = system: SR leukemia
# SW-620 colon = system: SW-620 colon
# T-47D breast = system: T-47D breast
# TK-10 renal = system: TK-10 renal
# U251 CNS = system: U251 CNS
# UACC-257 melanoma = system: UACC-257 melanoma
# UACC-62 melanoma = system: UACC-62 melanoma
# UO-31 renal = system: UO-31 renal
compound,measurement,setting,value
CN1CCC=C(COC(=O)C(O)(c2ccccc2)C2CCCC2)C1 (stereo not drawn),TGI,786-0 renal,> 100 µM
same,TGI,A549 NSCLC,> 100 µM
same,TGI,ACHN renal,> 100 µM
same,TGI,BT-549 breast,> 100 µM
same,TGI,CAKI-1 renal,> 100 µM
same,TGI,CCRF-CEM leukemia,> 100 µM
same,TGI,COLO 205 colon,> 100 µM
same,TGI,DU-145 prostate,> 100 µM
same,TGI,EKVX NSCLC,> 100 µM
same,TGI,HCC-2998 colon,> 100 µM
same,TGI,HCT-116 colon,> 100 µM
same,TGI,HCT-15 colon,> 100 µM
same,TGI,HL-60(TB) leukemia,> 100 µM
same,TGI,HOP-62 NSCLC,> 100 µM
same,TGI,HT29 colon,> 100 µM
same,TGI,IGROV1 ovarian,> 100 µM
same,TGI,K-562 leukemia,> 100 µM
same,TGI,KM12 colon,> 100 µM
same,TGI,LOX IMVI melanoma,> 100 µM
same,TGI,M14 melanoma,> 100 µM
same,TGI,MALME-3M melanoma,> 100 µM
same,TGI,MCF7 breast,> 100 µM
same,TGI,MDA-MB-231 breast,> 100 µM
same,TGI,MDA-MB-435,> 100 µM
same,TGI,MDA-N,> 100 µM
same,TGI,MOLT-4 leukemia,> 100 µM
same,TGI,NCI-H226 lung,> 100 µM
same,TGI,NCI-H23 lung,> 100 µM
same,TGI,NCI-H522 lung,> 100 µM
same,TGI,NCI/ADR-RES ovarian,> 100 µM
same,TGI,OVCAR-3 ovarian,> 100 µM
same,TGI,OVCAR-5 ovarian,> 100 µM
same,TGI,OVCAR-8 ovarian,> 100 µM
same,TGI,PC-3 prostate,> 100 µM
same,TGI,RPMI-8226 leukemia,> 100 µM
same,TGI,RXF 393 renal,> 100 µM
same,TGI,SF-268 CNS,> 100 µM
same,TGI,SF-295 CNS,> 100 µM
same,TGI,SF-539 CNS,> 100 µM
same,TGI,SK-MEL-28 melanoma,> 100 µM
same,TGI,SK-MEL-5 melanoma,> 100 µM
same,TGI,SK-OV-3 ovarian,> 100 µM
same,TGI,SN12C renal,> 100 µM
same,TGI,SNB-19 CNS,> 100 µM
same,TGI,SNB-75 CNS,> 100 µM
same,TGI,SR leukemia,> 100 µM
same,TGI,SW-620 colon,> 100 µM
same,TGI,T-47D breast,> 100 µM
same,TGI,TK-10 renal,> 100 µM
same,TGI,U251 CNS,> 100 µM
same,TGI,UACC-257 melanoma,81.9 µM
same,TGI,UACC-62 melanoma,> 100 µM
same,TGI,UO-31 renal,> 100 µM
